Literature values, collected in paper PMC6709472 (Antimicrobial Agents and Chemotherapy, 2019).

System: three Old World and three New World cutaneous Leishmania strains

O=[N+]([O-])c1cn2c(n1)O[C@@H](COc1ccc(-c3ccc(F)cc3)nc1)CC2 [DNDI-0690]
EC50: < 5 µM
